B1: murine MN-14: murine Class III anti-CEA MAb, reacting with CEA, unreactive with NCA and meconium antigen (antibody, listed as Mus sp., V domains shown)
VH: EVKLLESGGGLVQSGGSLKLSCAASGFDFTTYWMSWVRQAPGKGLEWIGEIHPDSSTINYAPSLKDKFIVSRDNAKNTLYLQMSKVRSEDTALYYCASLYFGFPWFAYWGQGTPVTVSA
VL: EIQLTQSHKMMSTSVGDRVSITCKASQDVGTSVAWYQQRPGQSPKLLIYWTSTRHTGVPDRFTGSVSGTDFTLTITNVQSEDLADYFCQQYSLYRSFGGGTKLEIK
modifications: constant regions

System: TT tumors
Test: Naked anti-CEA MAb alone on growth of TT tumors in nude mice
Conditions: 0.5 mg/mouse i.v. one day after TT cells, then three weekly doses

| Molecule | mean tumor volume as % of the untreated control animals (day-37) [%] | effect on tumor growth (specificity of treatment) |
| --- | --- | --- |
| hMN-14: humanized (CDR-grafted) Class III anti-CEA monoclonal antibody MN-14, naked | 42.7 | – |
| B1 | – | results similar to the hMN-14 |
